Columns and labels:
human Slo3 = biological target: T1, human Slo3 (Homo sapiens, UniProt A8MYU2); assay: Whole-cell patch-clamp of Slo3 currents in CHO cells co-expressing human Slo3 and LRRC52; assay type: cell-based
T1 construct: expressed in transfected cells; host or cells: CHO cells, transient co-transfection with pcDNA3.1(+) vectors
T1 sequence (A8MYU2 1-1149): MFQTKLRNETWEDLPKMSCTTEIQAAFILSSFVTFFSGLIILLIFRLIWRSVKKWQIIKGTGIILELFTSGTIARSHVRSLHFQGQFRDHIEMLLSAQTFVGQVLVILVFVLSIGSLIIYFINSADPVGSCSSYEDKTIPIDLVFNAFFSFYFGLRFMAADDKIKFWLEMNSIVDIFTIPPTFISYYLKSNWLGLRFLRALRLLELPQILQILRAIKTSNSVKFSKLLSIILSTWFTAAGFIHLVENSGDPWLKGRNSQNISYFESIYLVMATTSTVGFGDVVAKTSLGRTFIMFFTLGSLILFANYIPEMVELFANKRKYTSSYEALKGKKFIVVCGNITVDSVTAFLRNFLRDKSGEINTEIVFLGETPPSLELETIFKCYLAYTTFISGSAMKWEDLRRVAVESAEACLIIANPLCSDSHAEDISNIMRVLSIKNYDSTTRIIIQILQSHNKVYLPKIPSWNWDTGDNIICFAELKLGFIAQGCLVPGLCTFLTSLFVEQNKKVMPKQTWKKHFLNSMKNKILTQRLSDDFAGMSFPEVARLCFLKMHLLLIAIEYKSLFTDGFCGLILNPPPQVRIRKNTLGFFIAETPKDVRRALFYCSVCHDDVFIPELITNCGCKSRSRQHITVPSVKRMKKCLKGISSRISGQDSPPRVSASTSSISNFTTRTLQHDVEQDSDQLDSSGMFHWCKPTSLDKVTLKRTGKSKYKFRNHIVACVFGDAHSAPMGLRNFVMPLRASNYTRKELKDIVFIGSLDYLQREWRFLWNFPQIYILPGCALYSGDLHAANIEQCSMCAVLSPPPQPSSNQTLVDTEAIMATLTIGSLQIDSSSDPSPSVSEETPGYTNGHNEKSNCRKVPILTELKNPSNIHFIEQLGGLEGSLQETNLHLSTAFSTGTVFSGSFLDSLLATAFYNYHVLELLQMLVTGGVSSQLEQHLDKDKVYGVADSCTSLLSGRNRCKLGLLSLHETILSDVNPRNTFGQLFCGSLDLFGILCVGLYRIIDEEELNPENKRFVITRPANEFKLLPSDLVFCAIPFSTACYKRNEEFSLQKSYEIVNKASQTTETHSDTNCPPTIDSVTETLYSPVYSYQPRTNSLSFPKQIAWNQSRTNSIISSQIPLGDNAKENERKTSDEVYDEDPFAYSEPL
T1 sequence (Q8N7C0 24-313 partner): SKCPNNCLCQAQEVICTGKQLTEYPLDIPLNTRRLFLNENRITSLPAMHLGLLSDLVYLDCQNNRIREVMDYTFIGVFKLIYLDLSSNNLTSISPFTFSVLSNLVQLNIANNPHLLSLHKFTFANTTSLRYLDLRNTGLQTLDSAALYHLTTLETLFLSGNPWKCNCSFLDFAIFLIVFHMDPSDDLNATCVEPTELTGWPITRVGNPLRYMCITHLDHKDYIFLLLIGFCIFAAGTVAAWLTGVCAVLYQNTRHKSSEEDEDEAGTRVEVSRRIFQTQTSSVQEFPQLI

[1] = test system: T2, native Slo3 in human sperm; assay: Whole-cell patch-clamp of native Slo3 currents in human sperm; assay type: cell-based; settings: 300 µM albumin; n = 4; statistically not significant
T2 construct: Slo3 currents recorded from human sperm at +100 mV before and after perfusion with albumin; endogenous in cells; host or cells: human swim-up sperm
Procedure: Recordings from swim-up sperm ([Young et al., 2024]) in the whole-cell configuration were performed as described before (e.g., [Strünker et al., 2011]; [Brenker et al., 2014]) according to the protocols approved by the Ethics Committee of the Medical Association Westfalen-Lippe and the Medical Faculty Münster (2021-402-f-S) and the Declaration of Helsinki. Seals between pipette and sperm were formed at the cytoplasmic droplet or neck region in extracellular solution (HS) containing (in mM): 145 NaCl, 5 KCl, 1 MgSO4, 2 CaCl2, 5 glucose, and 20 HEPES, adjusted to pH 7.4 with NaOH. The pipette (10–15 MΩ) solution contained (in mM): 130 K-aspartate, 5 KCl, 50 HEPES, and 1 CaCl2, adjusted to pH 7.3 with KOH. Data were not corrected for liquid junction potentials.
Analysis was performed using Clampfit 10.7 (Molecular Devices) and OriginPro 2020 (OriginLab Corporation, Northampton, MA, United States). The inhibition was calculated based on the currents from the +50 mV pulse following the +100 mV step (voltage-step protocol Figure 1). We corrected for leak current in each measurement by subtracting the current at the +50 mV pulse immediately following a −100 mV step, i.e., before opening of Slo3 commenced. […] The predicted action of multiple components was calculated by multiplying the hill equations for each individual component. […]

## albumin: Human serum albumin, contained in follicular fluid in high micromolar concentrations
Human Slo3; dose-response, Hill fit, mean ± SD, read-out: IC50 for inhibition of Slo3
  IC50: 131 ± 20 µM
Human Slo3; high intracellular Ca^2+ (1 mM) and elevated pH (8.0), n = 6
  decrease of Slo3 currents in CHO cells: 70 ± 5%
Human Slo3; repetitive-pulse protocol, CHO cells
  time until inhibition peaks: 10 to 20 s
[1]
  decrease of Slo3 currents in human sperm: 15 ± 30%
